Test [1] deals with Cholinesterase (Homo sapiens, UniProt P06276). The test is described as follows: Inhibition of human recombinant BChE.
Test [2] addresses T1, Acetylcholinesterase (Homo sapiens, UniProt P22303). The test is described as follows: Inhibition of human recombinant AChE.
Test [3] addresses Cholinesterase (UniProt P06276+P22303). The test is described as follows: Inhibition of human recombinant AChE assessed as dissociation constant for enzyme-inhibitor-substrate complex by Lineweaver-Burk plot.
A short description of test [4]: Inhibition of mAChR.
Test [5] can be described thus: Inhibition of nAChR.
For test [6], the target named is T1, Acetylcholinesterase. The test is described as follows: Inhibition of human recombinant AChE assessed as dissociation constant for enzyme-inhibitor complex by Lineweaver-Burk plot.

By UniProt entry, the sequences of proteins in these tests, tags left out. Residues count along the entry.
UniProt P06276, 29-602 limits assumed: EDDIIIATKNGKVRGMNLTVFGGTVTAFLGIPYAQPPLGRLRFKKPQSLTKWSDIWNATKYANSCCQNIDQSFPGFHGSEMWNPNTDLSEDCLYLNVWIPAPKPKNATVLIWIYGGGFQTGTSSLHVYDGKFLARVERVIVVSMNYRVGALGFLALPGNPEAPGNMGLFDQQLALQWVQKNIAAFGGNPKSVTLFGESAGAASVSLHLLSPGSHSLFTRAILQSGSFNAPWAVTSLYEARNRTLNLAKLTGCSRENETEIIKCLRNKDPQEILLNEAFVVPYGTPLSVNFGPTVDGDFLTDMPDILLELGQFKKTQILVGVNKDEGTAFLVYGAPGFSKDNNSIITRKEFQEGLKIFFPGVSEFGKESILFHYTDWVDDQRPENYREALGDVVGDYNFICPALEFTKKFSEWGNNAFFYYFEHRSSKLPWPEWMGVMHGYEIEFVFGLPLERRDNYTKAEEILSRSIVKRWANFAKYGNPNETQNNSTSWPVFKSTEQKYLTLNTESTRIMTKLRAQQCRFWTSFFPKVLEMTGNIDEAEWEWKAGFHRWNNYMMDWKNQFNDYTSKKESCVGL
UniProt P06276, whole entry, looked up: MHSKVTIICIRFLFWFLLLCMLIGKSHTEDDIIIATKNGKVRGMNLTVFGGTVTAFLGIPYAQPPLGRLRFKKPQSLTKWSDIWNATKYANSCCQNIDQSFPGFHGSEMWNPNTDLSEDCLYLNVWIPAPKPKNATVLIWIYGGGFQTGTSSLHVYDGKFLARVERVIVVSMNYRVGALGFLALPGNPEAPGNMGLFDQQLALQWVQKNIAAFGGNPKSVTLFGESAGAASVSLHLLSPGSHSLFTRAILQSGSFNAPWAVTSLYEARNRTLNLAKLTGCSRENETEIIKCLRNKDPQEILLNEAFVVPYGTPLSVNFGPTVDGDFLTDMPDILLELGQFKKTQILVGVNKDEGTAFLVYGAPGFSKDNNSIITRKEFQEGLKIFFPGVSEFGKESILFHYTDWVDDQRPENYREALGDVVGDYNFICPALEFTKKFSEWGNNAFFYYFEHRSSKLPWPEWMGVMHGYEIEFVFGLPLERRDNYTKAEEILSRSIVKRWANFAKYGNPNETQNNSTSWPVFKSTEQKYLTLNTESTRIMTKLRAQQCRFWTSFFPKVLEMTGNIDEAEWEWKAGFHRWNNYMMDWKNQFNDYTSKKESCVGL
UniProt P22303, 32-614 limits assumed: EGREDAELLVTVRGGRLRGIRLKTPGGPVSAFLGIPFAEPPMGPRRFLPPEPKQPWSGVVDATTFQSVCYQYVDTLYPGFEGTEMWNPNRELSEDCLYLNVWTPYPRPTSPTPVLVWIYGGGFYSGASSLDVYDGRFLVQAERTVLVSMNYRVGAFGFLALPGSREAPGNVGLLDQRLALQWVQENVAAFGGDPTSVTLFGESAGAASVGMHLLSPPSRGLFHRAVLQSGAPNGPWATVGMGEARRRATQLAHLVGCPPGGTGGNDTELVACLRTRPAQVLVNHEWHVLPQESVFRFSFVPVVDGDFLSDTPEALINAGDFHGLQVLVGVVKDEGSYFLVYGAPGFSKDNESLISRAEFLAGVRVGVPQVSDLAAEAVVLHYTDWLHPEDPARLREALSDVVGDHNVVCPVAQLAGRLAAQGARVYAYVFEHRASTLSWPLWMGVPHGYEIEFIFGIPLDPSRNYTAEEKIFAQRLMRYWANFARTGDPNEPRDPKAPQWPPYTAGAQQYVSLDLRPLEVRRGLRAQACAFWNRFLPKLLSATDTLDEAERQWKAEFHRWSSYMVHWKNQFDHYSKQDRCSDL

`CCN(CC)C(C)CN1c2ccccc2Sc2ccccc21` (stereo unspecified): the 50% inhibitory concentration (IC50) – broadly, the midpoint of a concentration-inhibition curve – at Cholinesterase [1] was found to be 1600 nM.

Consider `CC(C)(C)c1cc[n+](CCCCCCCCCCCC[n+]2ccc(C(C)(C)C)cc2)cc1`, for which the values for the IC50 at Acetylcholinesterase [2] and on Cholinesterase [1] were 7 nM and 19 nM, respectively.

As for `CC(C)(C)c1cc[n+](Cc2cccc(C[n+]3ccc(C(C)(C)C)cc3)c2)cc1`, the IC50 stood at 700 nM on Acetylcholinesterase [2] and 1900 nM on Cholinesterase [1].

For the compound `CC(C)(C)c1cc[n+](CCCCCCCCCCC[n+]2ccc(C(C)(C)C)cc2)cc1`, the half-inhibitory concentration (IC50) on Acetylcholinesterase [2] was found to be 26 nM; on Cholinesterase [1] it was 110 nM.

On to `CC(C)(C)c1cc[n+](CCOCC[n+]2ccc(C(C)(C)C)cc2)cc1`, for which the IC50 on Acetylcholinesterase [2] came to 19000 nM.

For the compound `CC(C)(C)c1cc[n+](C[n+]2ccc(C(C)(C)C)cc2)cc1`, the IC50 worked out at 20000 nM on Acetylcholinesterase [2] and 34000 nM at Cholinesterase [1].

With `CC(C)(C)c1cc[n+](CCCCCCCC[n+]2ccc(C(C)(C)C)cc2)cc1`, the concentration for half-maximal inhibition (IC50) on Cholinesterase [1] was determined as 16 nM; in test [4], 37000 nM; in test [5] it was 30000 nM. Besides, at Cholinesterase [3], the Ki (commonly a dissociation constant, usually derived from enzyme kinetics or from competition with a known ligand) is 200 nM.

On to `CC(C)(C)c1cc[n+](C/C=C\C[n+]2ccc(C(C)(C)C)cc2)cc1`, for which the half-maximal inhibitory concentration (IC50) came to 2000 nM at Acetylcholinesterase [2] and 4400 nM at Cholinesterase [1].

In the case of `CC(C)(C)c1cc[n+](CCCCCC[n+]2ccc(C(C)(C)C)cc2)cc1`, the 50% inhibitory concentration (IC50) at Acetylcholinesterase [2] turned out to be 32 nM; at Cholinesterase [1], 600 nM.

As for `CC(C)(C)c1cc[n+](CCCCCCCCC[n+]2ccc(C(C)(C)C)cc2)cc1`, the results for the half-maximal inhibitory concentration (IC50) on Acetylcholinesterase [2] and on Cholinesterase [1] were 37 nM and 150 nM, respectively.

Take `CC(C)(C)c1cc[n+](Cc2ccc(C[n+]3ccc(C(C)(C)C)cc3)cc2)cc1`: the half-maximal inhibitory concentration (IC50) came to 300 nM on Acetylcholinesterase [2] and 1300 nM on Cholinesterase [1].

Regarding `CC(C)(C)c1cc[n+](CCCC[n+]2ccc(C(C)(C)C)cc2)cc1`, the IC50 on Acetylcholinesterase [2] stood at 3700 nM; on Cholinesterase [1] it was 5500 nM.

For the compound `CC(C)(C)c1cc[n+](CC[n+]2ccc(C(C)(C)C)cc2)cc1`, the IC50 on Acetylcholinesterase [2] was 17000 nM; on Cholinesterase [1], 20000 nM.

With `CC(C)(C)c1cc[n+](CCCCCCCCCC[n+]2ccc(C(C)(C)C)cc2)cc1`, the 50% inhibitory concentration (IC50) at Acetylcholinesterase [2] was found to be 12 nM; at Cholinesterase [1], 60 nM.

For `CC(C)(C)c1cc[n+](C/C=C/C[n+]2ccc(C(C)(C)C)cc2)cc1`, the half-maximal inhibitory concentration (IC50) turned out to be 3400 nM at Acetylcholinesterase [2] and 19000 nM on Cholinesterase [1].

Regarding `CC(C)(C)c1cc[n+](CCC[n+]2ccc(C(C)(C)C)cc2)cc1`, the IC50 at Acetylcholinesterase [2] was 14000 nM; at Cholinesterase [1], 53000 nM.

As for `CC(C)(C)c1cc[n+](Cc2ccccc2C[n+]2ccc(C(C)(C)C)cc2)cc1`, the IC50 at Acetylcholinesterase [2] came out at 10000 nM; at Cholinesterase [1], 2400 nM.

In the case of `CC(C)(C)c1cc[n+](/C=C2\C=CC3=CC/C(=C\[n+]4ccc(C(C)(C)C)cc4)C=C3C2)cc1`, the IC50 stood at 24 nM at Acetylcholinesterase [2] and 120 nM on Cholinesterase [1]. In addition, the Ki on Acetylcholinesterase [6] is 100 nM.

As for `CC(C)(C)c1cc[n+](CCCCCCC[n+]2ccc(C(C)(C)C)cc2)cc1`, the values for the concentration for half-maximal inhibition (IC50) at Acetylcholinesterase [2] and at Cholinesterase [1] were 16 nM and 700 nM, respectively.

Take `CC(C)(C)c1cc[n+](CCCCC[n+]2ccc(C(C)(C)C)cc2)cc1`: the half-maximal inhibitory concentration (IC50) on Acetylcholinesterase [2] turned out to be 24000 nM; at Cholinesterase [1] it was 5100 nM.

These data come from ChEMBL document CHEMBL1641598, “Preparation, in vitro screening and molecular modelling of symmetrical 4-tert-butylpyridinium cholinesterase inhibitors--analogues of SAD-128” (2011).
